The results in this text go back to US5892063A (Hauser, Inc., priority 1997, dated 1999).

This experiment deals with NCI-H322M. Description: cells. The settings on record: Homo sapiens, 48 h.

As for `CC(=O)O[C@H]1C(=O)[C@@]2(C)[C@H]([C@H](OC(=O)c3ccccc3)[C@]3(O)C[C@H](OC(=O)[C@H](O)[C@@H](NC(=O)C4(C)OC4C)c4ccccc4)C(C)=C1C3(C)C)[C@]1(OC(C)=O)CO[C@@H]1C[C@@H]2O` (some centres unmarked) [Ceph-epoxide, cephalomannine epoxide], the GI50 (read-out: Log10 GI50 (converted)) is 24 nM.

Take `CC(=O)O[C@H]1C(=O)[C@@]2(C)[C@H]([C@H](OC(=O)c3ccccc3)[C@]3(O)C[C@H](OC(=O)[C@H](O)[C@@H](NC(=O)c4ccccc4)c4ccccc4)C(C)=C1C3(C)C)[C@]1(OC(C)=O)CO[C@@H]1C[C@@H]2O` [Paclitaxel, paclitaxel, reference compound]: the CC50 (read-out: Log10 LC50 (converted)) is > 100000 nM.

As usually defined, the GI50 is the concentration that inhibits growth by half.
